From PubChem BioAssay AID485297 (National Center for Advancing Translational Sciences (NCATS), 2010) come the findings set out here.

SMILES strings stand for the structures. This is a selection; strong and weak results do not stand in their true shares. Records with an inconclusive call do not appear. Active and inactive are the calls of the source. Calls come from the whole dose curve; as a rule, active = well fitted activation curve with a large enough effect; inconclusive = small, poorly fitted or top-dose-only effect; inactive = no such curve, though single readings can be large or run the other way.

The assay is described as follows: qHTS Assay for Rab9 Promoter Activators. Note: % of control where 0% means no effect; nearly all actives have a fitted effect of over 60% in size. Conditions: Huh7 Rab9 promoter-luciferase reporter, luminescence, 24 h.
[1] abbreviates: at 9.22 µM (top of the series) unless noted.

Consider `O=C(COc1ccccc1)OC1CN2CCC1CC2` (centres undefined), for which the activation, negative = inhibition under setting [1] is inactive: 1.26%.

As to `COP1(=S)c2c(C)nn(CCC#N)c2N=C(c2ccc(F)cc2)N1C` (centres undefined), the activation, negative = inhibition under setting [1] is inactive: -2.49%.

On to `CCC(C)N(CC(C)C)C(=S)SC(NC(C)=O)C(Cl)(Cl)Cl` (centres undefined), for which, under setting [1], the activation, negative = inhibition was inactive: 0.343%.

With `O=C(OC1CN2CCC1CC2)c1cccc([N+](=O)[O-])c1` (centres undefined), the activation, negative = inhibition under setting [1] was inactive: 5.83%.

For the compound `CC(C)(C)C(=O)NC(Sc1ncccn1)C(Cl)(Cl)Cl` (centres undefined), under setting [1], the activation, negative = inhibition was inactive: -4.2%.

Turning to `Clc1n[nH]nc1-c1nn[nH][15n]1`, the activation, negative = inhibition under setting [1] was inactive: 12.7%.

`CCOP(=O)(Nc1ccc(C)cn1)OCC`: the activation, negative = inhibition under setting [1] is inactive: 7.3%.

On to `CN(CCCl)Cc1cc(Cl)c(NC2=NCCN2)c(Cl)c1`, for which, under setting [1], the activation, negative = inhibition is inactive: -3.02% [at 46.1 µM].

With `CCOP(=O)(NC(=NC(C)c1ccccc1)NC(C)c1ccccc1)OCC` (centres undefined), the activation, negative = inhibition under setting [1] was inactive: 6.64%.

In the case of `CCC1=CC2Cc3nc4ccc(Cl)cc4c(N)c3C(C1)C2` (centres undefined), the activation, negative = inhibition under setting [1] was inactive: 2.9e-05%.

Consider `O=P1(Nc2ccccn2)COc2ccccc2OC1`, for which, under setting [1], the activation, negative = inhibition was inactive: 0.078%.

As for `O=[As](O)(c1ccccc1Br)c1ccccc1Br`, under setting [1], the activation, negative = inhibition is inactive: -4.12%.

With `CN(C(=O)Cc1ccc(Cl)c(Cl)c1)[C@@H]1CCCC[C@H]1N1CCCC1`, the activation, negative = inhibition under setting [1] is inactive: -2.39%.

For `CC(C)/C=N\N=C(\N)N[N+](=O)[O-]`, the activation, negative = inhibition under setting [1] was inactive: -7.39%.

Take `COc1ccccc1CNC(=O)COC(=O)C(O)(c1ccccc1)c1ccccc1`: the activation, negative = inhibition under setting [1] is inactive: -0.541%.

Take `O=C(/C=C/c1ccccc1)OC1CN2CCC1CC2` (centres undefined): the activation, negative = inhibition under setting [1] is inactive: -0.494%.

For the compound `CN(C)C1(CNC(=O)c2ccc(S(C)(=O)=O)cc2)CCCCC1`, the activation, negative = inhibition under setting [1] was inactive: -3.48%.

In the case of `Cc1ccc(C(=O)OC2CN3CCC2CC3)cc1` (centres undefined), the activation, negative = inhibition under setting [1] is inactive: 0.0592%.

`CC1CCC(C(C)C)C(OP(=O)(Nc2ccccn2)c2ccccc2)C1` (centres undefined): under setting [1], the activation, negative = inhibition was inactive: -0.241%.

As to `Cc1nn(-c2ccccc2)c2c1P(=O)(N1CCOCC1)N(C)C(c1ccccc1)=N2` (centres undefined), under setting [1], the activation, negative = inhibition is inactive: -3.38%.

Take `O=[As](O)(c1cccs1)c1cccs1`: the activation, negative = inhibition under setting [1] is inactive: 7.11%.

For `Cc1ccc(OCC(=O)OC2CN3CCC2CC3)cc1` (centres undefined), the activation, negative = inhibition under setting [1] is inactive: -6.14%.

As for `NS(=O)(=O)c1cccc(NC(=O)COC(=O)C(O)(c2ccccc2)c2ccccc2)c1`, under setting [1], the activation, negative = inhibition is inactive: -0.282%.

On to `O=P1(Nc2ccc(Br)cn2)COc2ccccc2OC1`, for which the activation, negative = inhibition under setting [1] was inactive: 6.53%.

As to `Nc1cccc([As](=O)(O)c2ccccc2)c1`, under setting [1], the activation, negative = inhibition is inactive: 0.833%.

Turning to `O=P1(Nc2ncccn2)COc2ccccc2OC1`, the activation, negative = inhibition under setting [1] is inactive: -1.36%.

Take `O=C(O)COc1ccc([As](=O)(O)O)cc1[N+](=O)[O-]`: the activation, negative = inhibition under setting [1] was inactive: 2%.

Consider `Nc1ccccc1[As](=O)(O)c1ccccc1`, for which the activation, negative = inhibition under setting [1] is inactive: -1.66%.

For the compound `CS(=O)(=O)c1cc([N+](=O)[O-])c2no[n+]([O-])c2c1`, the activation, negative = inhibition under setting [1] was inactive: 2.61%.

In the case of `O=P(Nc1nccs1)(Oc1ccccc1)Oc1ccccc1`, the activation, negative = inhibition under setting [1] is inactive: -0.792%.

In the case of `O=P(Nc1nccs1)(c1ccccc1)c1nc2ccccc2s1` (centres undefined), the activation, negative = inhibition under setting [1] is inactive: -1.3%.

`CCOP1(=S)c2c(C)nn(CCC#N)c2N=C(c2ccccc2F)N1C` (centres undefined): the activation, negative = inhibition under setting [1] was inactive: -4.18%.

For `O=[N+]([O-])c1ccc2c(c1)nnn2O`, the activation, negative = inhibition under setting [1] was inactive: -2.55%.

As for `CN(C(=O)Cc1ccccc1)[C@@H]1CC[C@]2(CCCO2)C[C@H]1N1CCCC1`, the activation, negative = inhibition (at 9.22 µM (top of the series)) is inactive: 0.18% and the activation, negative = inhibition (at 46.1 µM (top of the series)) is inactive: -14.8%.

With `CCOP1(=S)c2c(C)nn(CCC#N)c2N=C(c2ccc(F)cc2)N1C` (centres undefined), the activation, negative = inhibition under setting [1] is inactive: -2.18%.

As for `N#CCCN(C(=O)COC(=O)C(O)(c1ccccc1)c1ccccc1)c1ccc(F)cc1`, the activation, negative = inhibition under setting [1] is inactive: 2.67%.

Take `NC(=O)Nc1ccc([As](=O)(O)O)cc1`: under setting [1], the activation, negative = inhibition is inactive: -2.84%.

As for `O=[As](O)(c1cccc(O)c1)c1cccc(O)c1`, the activation, negative = inhibition under setting [1] is inactive: -3.39%.

For the compound `CS(=O)(=O)c1ccc(Cl)c(NC(=O)COC(=O)C(O)(c2ccccc2)c2ccccc2)c1`, the activation, negative = inhibition under setting [1] was inactive: -4.46%.

With `O=[As](O)(O)c1cccnc1`, the activation, negative = inhibition under setting [1] is inactive: -1.68%.

`COc1cc(C(=O)NCC2(N3CCOCC3)CCCCC2)cc(Cl)c1OC(C)C`: under setting [1], the activation, negative = inhibition was inactive: -3.95%.

Turning to `CN(C(=O)Cc1ccc(Cl)c(Cl)c1)[C@@H]1CC[C@]2(CCCO2)C[C@H]1N1CCCC1`, the activation, negative = inhibition under setting [1] is inactive: -7.63% [at 46.1 µM].

For the compound `O=C(OC1CN2CCC1CC2)c1ccc(Cl)cc1` (centres undefined), the activation, negative = inhibition under setting [1] was inactive: -1.43%.

In the case of `CCOP(=O)(Nc1cccc2ccccc12)OCC`, the activation, negative = inhibition under setting [1] is inactive: -1%.

`COc1cc(C2NCCC3(OCCO3)C2(C)C)cc(OC)c1OC` (centres undefined): the activation, negative = inhibition under setting [1] was inactive: 2.49%.

Take `CCCOP(=S)(Nc1nc(N)cc(=O)[nH]1)OCCC`: the activation, negative = inhibition under setting [1] is inactive: -1.22%.

`Nc1cccc2c([As](=O)(O)O)cccc12`: under setting [1], the activation, negative = inhibition was inactive: -1.95%.

For the compound `Cc1ccc(NCCc2c([N+](=O)[O-])cc([N+](=O)[O-])cc2[N+](=O)[O-])cc1`, the activation, negative = inhibition under setting [1] is inactive: -2.31%.
